# Experimental data as given in PubChem BioAssay AID1467 (National Center for Advancing Translational Sciences (NCATS), 2008).
# Sequences of proteins named here, by UniProt entry; tags and fusion partners are left off.
# UniProt P06280, whole entry: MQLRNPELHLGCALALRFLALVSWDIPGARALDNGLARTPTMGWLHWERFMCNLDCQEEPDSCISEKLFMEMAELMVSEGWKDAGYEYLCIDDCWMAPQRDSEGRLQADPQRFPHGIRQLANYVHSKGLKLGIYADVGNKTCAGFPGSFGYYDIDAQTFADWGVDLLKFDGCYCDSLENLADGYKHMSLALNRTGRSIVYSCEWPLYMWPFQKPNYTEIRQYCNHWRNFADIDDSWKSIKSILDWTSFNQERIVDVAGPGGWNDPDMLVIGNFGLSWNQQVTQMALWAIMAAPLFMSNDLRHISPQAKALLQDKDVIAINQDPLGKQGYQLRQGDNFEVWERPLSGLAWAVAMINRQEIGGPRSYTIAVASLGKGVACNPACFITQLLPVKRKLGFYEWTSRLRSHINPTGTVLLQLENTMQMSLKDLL
# “And” between values parts separate entries of the source, which are not always exact repeats. Equal values may be shown once. Only a part is listed here, and it is no random draw. The source made the active and inactive calls. Calls follow the shape of the dose curve; as a rule, active = well fitted curve in the direction sought with a large enough effect; inconclusive = small, poorly fitted or top-dose-only effect, or effect the other way, or another doubt; inactive = no such curve, though single readings can be large or run the other way.
# Molecular target: Alpha-galactosidase A (Homo sapiens) (UniProt P06280)
# Experiment: qHTS Assay for Inhibitors of Human alpha-Galactosidase at pH 4.5.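 Also: 0% = full activity with enzyme and -100% = basal without enzyme.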
# Conditions: purified enzyme, 4-MU-alpha-Gal fluorescence; at 105 µM (top of the series) unless noted
# Excerpt: NIH Chemical Genomics Center [NCGC]
# NIH Molecular Libraries Probe Production centers Network [MLPCN]
# Assay Submitter (PI): Wei Zheng
# Alpha-galactosidase is a homodimeric glycoprotein that hydrolyzes the terminal alpha-galactosyl moieties from glycolipids and glycoproteins. Deficiency of this enzyme results in Fabry Disease with progressive accumulation of globotriaosylceramide and other glycosphingolipids in vascular endothelial cells that causes renal failure, myocardial infarction and stroke, and premature death in patients. It has been reported that the improper folding and trafficking of alpha-galactosidase resulting from the genetic mutations may account for a significant numbers of Fabry patients. […] We optimized this alpha-galactosidase assay in 1536-well plate format for identifying the novel small molecule inhibitors with the structures other than the sugar analogs in order to develop the new pharmacological chaperones. Although this assay has the same protocol as PubChem AID 992, this is a separate project and, therefore, is published as a separate assay
# NCGC Assay Protocol Summary:
# This is a fluorogenic enzyme assay with 4-Methylumbelliferyl alpha-D-galactopyranoside as the substrate and human […] as the enzyme preparation. Upon the hydrolysis of this fluorogenic substrate, the resulting product, […]. 4-Methyllumbelliferone, can be excited at 365 nm and emits at 440 nm. This fluorescence which can be detected by a standard fluorescence plate reader. Data were normalized to the controls for basal activity (without enzyme) and 100% activity (with enzyme). In the AC50 values were determined from concentration-response data modeled with the standard Hill equation.
# Assay buffer: 50 mM citric acid (titrated with potassium phosphate to pH 4.5), 0.005% Tween-20, pH 4.5. (pH 4.5 is an optimal condition for this enzyme assay)
# 1536-well assay protocol for the human alpha-galactosidase:
# (1) Add 2 ul/well of enzyme (12 nM final)
# (2) Add 23 nL compounds in DMSO solution. The final titration was 0.7 nM to 77 uM.
# (3) Add 1 ul of substrate (400 uM final)
# (4) Incubate at room temperature for 20 min.
# (5) Add 2 ul stop solution (1M NaOH and 1M Glycine mixture, pH 10)
# (6) Detect the assay plate in a ViewLux plate reader (PerkinElmer) with Ex=365 nm and Em=440nm.
# Keywords: MLSMR, MLPCN, NIH Roadmap, qHTS, NCGC, : Alpha-galactosidase, Fabry Disease, pharmacological chaperone, chaperone therapy
row,SMILES,"activity change, negative = inhibition"
1,COc1ccc(OP(C)(=O)Nc2ccccc2Br)cc1 (configuration not stated),inactive: 0.0932%
2,COc1ccccc1OP(C)(=O)Nc1ccc(C)c(C)c1 (configuration not stated),inactive: 5.48%
3,CN(C(=O)Cc1ccc(Cl)c(Cl)c1)[C@H]1CCCC[C@@H]1N1CCCC1,inactive: -5.08% [middle of 6 runs]
4,Cc1ccc(NP(=O)(Oc2ccccc2F)Oc2ccccc2F)nc1,inactive: -3.27%
5,Cc1cc(SC(NC(=O)c2ccc(F)cc2)C(Cl)(Cl)Cl)ncn1 (configuration not stated),inactive: -6.33%
6,CCOP(=O)(Nc1ccccc1)OCC,inactive: -5.06% and inactive: -3.5%
7,O=P(Nc1nc2ccc(Cl)cc2s1)(c1ccccc1)c1ccccc1,inactive: 0.573%
8,Cc1cc(C)cc(OP(C)(=O)Nc2cccc(C(F)(F)F)c2)c1 (configuration not stated),inactive: -0.976%
9,CC(=O)Nc1ccc([As](=O)(O)O)cc1,inactive: -5.14%
10,O=C(O)c1ccccc1[As](=O)(O)O,inactive: -5.55%
11,CP(=O)(Nc1ccc(Cl)cc1Cl)Oc1ccccc1 (configuration not stated),inactive: -3.41%
12,CP(=O)(OCCOc1ccccc1)OCCOc1ccccc1,inactive: -5.28%
13,Nc1cccc2ccc([As](=O)(O)O)cc12,inactive: 1.28%
14,CCN(N=Nc1nonc1N)c1nonc1N,inactive: -1.91%
15,Cc1nc2ccc3ccccc3c2o1.O=[N+]([O-])c1cc([N+](=O)[O-])c(O)c([N+](=O)[O-])c1,inactive: -5.11%
16,CN1CCCC(OC(=O)C(c2ccccc2)c2ccccc2)C1 (configuration not stated),inactive: -1.95%
17,CN(C)CCOC(=O)C(O)(c1ccccc1)C1CCCC1 (configuration not stated),inactive: 3.04%
18,Clc1ccc(Cl)c(NC2=NCC(CBr)S2)c1 (configuration not stated),inactive: 6.22%
19,Cc1ccc(OP(=O)(Nc2nccs2)Oc2ccc(C)cc2)cc1,inactive: -1.06%
20,COc1ccccc1OP(=O)(Nc1ccc(C)cn1)Oc1ccccc1OC,inactive: -3.16%
21,COc1ccc(OP(C)(=O)Nc2ccccn2)cc1 (configuration not stated),inactive: 2.7%
22,Cc1ccc(N/C(=N/P(=O)(N2CCOCC2)N2CCOCC2)N2CCOCC2)cc1,inactive: 6.26%
23,COc1ccccc1OP(C)(=O)Nc1ccc(Br)cc1 (configuration not stated),inactive: 1.64%
24,NC(=O)c1cc([N+](=O)[O-])cc([N+](=O)[O-])c1N,inactive: -7.54%
25,CCc1ccc(OP(C)(=O)O)cc1,inactive: 1.08%

row,SMILES,"activity change, negative = inhibition"
1,COc1ccccc1OP(C)(=O)Nc1ccc(C)cc1C (configuration not stated),inactive: -0.623%
2,CP(=O)(Nc1ccccn1)Oc1ccccc1 (configuration not stated),inactive: -0.49%
3,O=C(NC(Sc1ccncn1)C(Cl)(Cl)Cl)c1ccccc1 (configuration not stated),inactive: -4.22%
4,Cc1c2non([O-])c-2c(C)[n+](=O)[n+]1[O-],inactive: 4.81%
5,Oc1ccccc1CNc1ccccn1,inactive: -3.48%
6,Nc1cc(N)c2nonc2c1[N+](=O)[O-],inactive: -4.96%
7,Cc1c(NP(C)(=O)Oc2ccc(C(C)C)cc2)c(=O)n(-c2ccccc2)n1C (configuration not stated),inactive: -21.7%
8,O=[N+]([O-])c1cc([N+](=O)[O-])c(Nc2ccccn2)c([N+](=O)[O-])c1,inactive: -10.8%
9,CC(C)CC(=O)NC(Sc1ccc(Cl)cc1)C(Cl)(Cl)Cl (configuration not stated),inactive: -1.68%
10,CCc1ccc(OP(C)(=O)Nc2cccnc2)cc1 (configuration not stated),inactive: 6.62%
11,O=[N+]([O-])c1cc([N+](=O)[O-])c(CCNc2ccccc2)c([N+](=O)[O-])c1,inactive: 0.948%
12,CCc1nc2c(n1)c1c(non1O)c1c2no[n+]1[O-],inactive: -0.699%
13,Cc1ccc(NP(=O)(Oc2ccccc2)Oc2ccccc2)nc1,inactive: 0.297%
14,CP(=O)(Oc1ccccc1)N1CCOC1=O (configuration not stated),inactive: -0.689%
15,O=C(OCCCN1CCCC1)C(O)(c1ccccc1)C1CCCCC1 (configuration not stated),inactive: -14.8%
16,OCCSCCO,inactive: 7.94%
17,CC(=O)N1C2C3N(C(C)=O)C1C1N(C(C)=O)C(C(N1C(C)=O)N3C(C)=O)N2C(C)=O,inactive: -2.79%
18,O=[N+]([O-])c1cccc2n[nH]nc12,inactive: -2.53%
19,COc1ccccc1OP(C)(=O)Nc1c(C)n(C)n(-c2ccccc2)c1=O (configuration not stated),inactive: 1.42%
20,COc1ccc(C2=NCC(CBr)S2)cc1 (configuration not stated),inactive: -7.11%
21,COc1ccc(OP(C)(=O)Nc2ccc(Br)cc2)cc1 (configuration not stated),inactive: -3.18%
22,CCN(CC)CC(O)COC(=O)C(O)(c1ccccc1)C1CCCCC1 (configuration not stated),inactive: -0.001%
23,CC1CCN(C(=O)Oc2c(Cl)cc(Cl)c3cccnc23)CC1,inactive: 2.54%
24,CC(=O)C1=CCCC2CCC1N2 (configuration not stated),inactive: -6.54%
25,CN(C)C(=O)OCCc1n(C)cc[n+]1C,inactive: 9.08%

row,SMILES,"activity change, negative = inhibition"
1,CC(C)=N/N=C(\N)N[N+](=O)[O-],inactive: -0.153%
2,CN(C)C(=O)c1c([N+](=O)[O-])cc([N+](=O)[O-])cc1[N+](=O)[O-],inactive: -1.3%
3,CP(=O)(Nc1ccc(Cl)cc1)Oc1ccc(F)cc1 (configuration not stated),inactive: 6.73%
4,CCN(/C(=N/P(=O)(N1CCOCC1)N1CCOCC1)N1CCOCC1)c1ccc(OC)cc1,inactive: 0.334%
5,C[N+]1=C2C=CC=CC=C2SC12C([N+](=O)[O-])=CC([N+](=O)[O-])=C[C-]2[N+](=O)[O-] (configuration not stated),inactive: -3.69%
6,COc1ccccc1OP(C)(=O)Nc1ccccc1Br (configuration not stated),inactive: 6.62%
7,Nc1ccc([As](=O)(O)c2ccc(N)cc2)cc1,inactive: 1.16%
8,CC(C)(C)c1ccc(OP(C)(=O)O)cc1,inactive: -2.02%
9,CP(=O)(OC12CC3CC(CC(C3)C1)C2)OC12CC3CC(CC(C3)C1)C2,inactive: -3.93%
10,O=C(Nc1cc([As](=O)(O)O)ccc1O)c1ccccc1,inactive: 6.74%
11,CCOC(=O)c1ccc(NP(C)(=O)Oc2ccc(Cl)cc2)cc1 (configuration not stated),inactive: -6.45%
12,O=C(O)CNc1ccc([As](=O)(O)O)cc1,inactive: -5.36%
13,O=[N+]([O-])c1cccc(NC2=NCC(CBr)S2)c1 (configuration not stated),inactive: -11.3%
14,C/C1=C2N=C(/C=C3N=C(/C(C)=C4\[N-][C@@](C)([C@H]5N=C1[C@@](C)(CCC(=O)NC[C@H](C)OP(=O)([O-])O[C@@H]1[C@H](O)[C@H](n6cnc7cc(C)c(C)cc76)O[C@@H]1CO)[C@@H]5CC(N)=O)[C@](C)(CC(N)=O)[C@H]4CCC(N)=O)[C@@](C)(CC(N)=O)[C@@H]\3CCC(N)=O)C(C)(C)[C@@H]/2CCC(N)=O.[C-]#N.[Co+3],inactive: 1.01%
15,O=[N+]([O-])c1ncn(CCn2ncnc2[N+](=O)[O-])n1,inactive: -14.5%
16,CC(C)(C)C(=O)NC(Sc1ccncn1)C(Cl)(Cl)Cl (configuration not stated),inactive: -29.2%
17,COc1ccc(NP(C)(=O)Oc2ccccc2OC)cc1 (configuration not stated),inactive: 7.24%
18,C[C@H]1OP(=O)(Oc2ccccc2)[C@H](O)[C@H](O)[C@H]1N=[N+]=[N-] (some centres not stated),inactive: -4.93%
19,O=P(Nc1nc2ccccc2s1)(c1ccccc1)c1ccccc1,inactive: 4.14%
20,CN(C)CCOC(=O)C(O)(c1ccccc1)C1CCCCC1 (configuration not stated),inactive: 1.96%
21,O=P(Nc1ccccn1)(c1ccc(Br)cc1)c1ccc(Br)cc1,inactive: -12.5%
22,COc1ccc(OP(C)(=O)Nc2cccc(Br)c2)cc1 (configuration not stated),inactive: -1.22%
23,O=C(OC1CN2CCC1CC2)c1cccc(Cl)c1 (configuration not stated),inactive: -2.52%
24,C(Cc1nn[nH]n1)Cc1nn[nH]n1,inactive: 10.1%
25,Nc1ccc([As](=O)(O)c2ccc([N+](=O)[O-])cc2)cc1,inactive: 2.07%

row,SMILES,"activity change, negative = inhibition"
1,Cc1cc(-c2cccc3ccccc23)c(C)cn1.O=[N+]([O-])c1cc([N+](=O)[O-])c(O)c([N+](=O)[O-])c1,inactive: -2.74%
2,O=[As](O)(c1ccccc1)c1ccc(O)cc1,inactive: 6.86%
3,O=[N+]([O-])c1ccc(OP2(=O)COCCO2)cc1 (configuration not stated),inactive: -4.2%
4,CC(=O)NC(SC(=S)N(C)C)C(Cl)(Cl)Cl (configuration not stated),inactive: 9.87%
5,O=[N+]([O-])c1ncn(CCn2cnc([N+](=O)[O-])n2)n1,inactive: 6.56%
6,c1nnnn1CCn1cnnn1,inactive: 1.02%
7,CCOP(C)(=S)SCC(=O)NC(C)(CC)C(=O)O (configuration not stated),inactive: -9.61%
8,O=P(Nc1nccs1)(c1ccccc1)c1ccccc1,inactive: 4.86%
9,CC(C)C(=O)NC(Sc1ccccc1)C(Cl)(Cl)Cl (configuration not stated),inactive: 0.935%
10,CP(=O)(Nc1ccc(SC(F)(F)F)cc1)Oc1ccc(F)cc1 (configuration not stated),inactive: -7.45%
11,Cc1ccccc1NP(C)(=O)Nc1ccccc1C,inactive: 2.72%
12,CCN(CCCl)Cc1ccccc1C,inactive: -3.74%
13,CP(=O)(Nc1ccc2c(c1)OCCO2)Oc1ccccc1 (configuration not stated),inactive: 2.83%
14,CC(C)(C)C(=O)NC(Sc1ccccc1)C(Cl)(Cl)Cl (configuration not stated),inactive: -0.77% [at 21.1 µM]
15,CP(=O)(Nc1ccccc1F)Oc1ccccc1 (configuration not stated),inactive: -11.8%
16,CCOc1ccc(C2=NCC(CBr)S2)cc1 (configuration not stated),inactive: 10.6%
17,O=P1(Nc2nc3ccc(Cl)cc3s2)COc2ccccc2O1 (configuration not stated),inactive: 4.69%
18,CC(=O)Nc1ccc(Oc2c([N+](=O)[O-])cc([N+](=O)[O-])cc2[N+](=O)[O-])cc1,inactive: -11.7%
19,CC(=O)Nc1ccc([As](=O)(O)O)c(O)c1,inactive: -2.52%
20,C[C@H]1OP(=O)(Oc2ccccc2)C[C@@H]2O[C@@H]21 (some centres not stated),inactive: 6.98%
21,C[C@@H]1C=CCP(=O)(Oc2ccccc2)O1 (some centres not stated),inactive: -1.22%
22,O=C(OCCN1CCN(CCOCc2ccccc2)CC1)C(O)(c1ccccc1)c1ccccc1,inactive: 1.51%
